Values quoted from earlier work as cited in patent US20170067909A1, “ASSAY-READY RECOMBINANT CELLS TRANSIENTLY OVEREXPRESSING GENES ENCODING DRUG TRANSPORTER PROTEINS AND/OR DRUG METABOLIZING ENZYMES” (Corning Incorporated, priority 2012, published 2017).

Amino acid sequences for entries named in this document (tags omitted). A change or cut given only in a name is not applied to a line headed by its entry.
UniProt Q9NPD5: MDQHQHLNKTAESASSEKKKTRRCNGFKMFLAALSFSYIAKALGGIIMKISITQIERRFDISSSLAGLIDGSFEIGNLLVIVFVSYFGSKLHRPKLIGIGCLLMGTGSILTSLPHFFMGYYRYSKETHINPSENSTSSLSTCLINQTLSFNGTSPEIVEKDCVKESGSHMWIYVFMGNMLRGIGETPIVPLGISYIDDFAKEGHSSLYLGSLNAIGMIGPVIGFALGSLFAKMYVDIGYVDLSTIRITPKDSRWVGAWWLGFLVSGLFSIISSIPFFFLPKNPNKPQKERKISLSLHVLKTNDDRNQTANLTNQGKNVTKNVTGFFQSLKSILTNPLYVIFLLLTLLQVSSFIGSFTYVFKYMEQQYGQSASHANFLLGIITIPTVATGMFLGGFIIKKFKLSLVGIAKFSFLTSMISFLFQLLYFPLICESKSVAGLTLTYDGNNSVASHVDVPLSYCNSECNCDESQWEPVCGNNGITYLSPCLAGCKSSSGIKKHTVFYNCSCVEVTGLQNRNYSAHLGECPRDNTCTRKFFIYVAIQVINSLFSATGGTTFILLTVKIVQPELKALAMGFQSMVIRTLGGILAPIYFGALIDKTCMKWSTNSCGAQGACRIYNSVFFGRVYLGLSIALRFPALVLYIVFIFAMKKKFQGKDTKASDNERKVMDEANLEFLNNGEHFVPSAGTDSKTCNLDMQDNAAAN

Target: OATP1B3 (Homo sapiens, UniProt Q9NPD5)
Details: read-out: Km, Literature Report; CHO Cells; Poirier A, et al., J Pharmacokinet Pharmacodyn, 2009; cited from earlier work

For `CSCC[C@H](NC(=O)[C@H](Cc1ccc(OS(=O)(=O)O)cc1)NC(=O)[C@@H](N)CC(=O)O)C(=O)NCC(=O)N[C@@H](Cc1c[nH]c2ccccc12)C(=O)N[C@@H](CCSC)C(=O)N[C@@H](CC(=O)O)C(=O)N[C@@H](Cc1ccccc1)C(N)=O` [CCK-8, cholecystokinin], the Km is listed as 16.5 µM.
